Results: patent US8642657B2 (Gruenenthal GmbH, priority 2003, dated 2014)

Sequences of proteins named here, by UniProt entry; tags and fusion partners are left off.
UniProt O35433, whole entry: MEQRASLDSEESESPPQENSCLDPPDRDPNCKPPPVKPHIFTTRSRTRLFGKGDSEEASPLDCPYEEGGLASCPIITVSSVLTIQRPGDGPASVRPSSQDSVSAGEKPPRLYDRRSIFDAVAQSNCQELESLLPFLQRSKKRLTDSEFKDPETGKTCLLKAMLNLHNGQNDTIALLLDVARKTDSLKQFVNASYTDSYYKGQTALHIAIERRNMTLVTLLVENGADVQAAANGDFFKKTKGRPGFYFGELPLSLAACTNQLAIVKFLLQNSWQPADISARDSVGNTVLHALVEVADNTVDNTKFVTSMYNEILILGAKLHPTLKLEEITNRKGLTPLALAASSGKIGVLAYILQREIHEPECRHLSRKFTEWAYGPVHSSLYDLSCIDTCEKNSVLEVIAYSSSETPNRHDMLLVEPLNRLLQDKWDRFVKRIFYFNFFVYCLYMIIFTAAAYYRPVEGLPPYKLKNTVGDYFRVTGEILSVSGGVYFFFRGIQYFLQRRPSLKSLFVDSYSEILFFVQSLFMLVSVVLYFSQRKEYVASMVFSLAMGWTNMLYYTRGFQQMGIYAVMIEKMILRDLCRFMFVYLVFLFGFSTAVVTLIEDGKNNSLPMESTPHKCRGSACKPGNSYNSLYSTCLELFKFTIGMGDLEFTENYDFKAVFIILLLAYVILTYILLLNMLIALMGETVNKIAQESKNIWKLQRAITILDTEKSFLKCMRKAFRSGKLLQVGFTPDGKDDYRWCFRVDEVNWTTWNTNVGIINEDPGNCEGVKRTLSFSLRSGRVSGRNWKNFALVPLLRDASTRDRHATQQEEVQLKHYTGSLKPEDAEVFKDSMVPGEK

Assays:
[1] = biological target: T1, rat VR1 (Rattus norvegicus, UniProt O35433); assay: 45Ca2+-uptake assay in CHO/VR1 cells, antagonism of capsaicin-stimulated uptake; assay type: cell-based; conditions: 45Ca2+ uptake stimulated by 50 nM capsaicin
T1 construct: expressed in transfected cells
Description: Initial stocks were dissolved in DMSO. For the binding assays, compounds were diluted in with DPBS with Ca^2+ and Mg^2+ and 0.25 mg/mL bovine serum albumin. For the calcium uptake assays, compounds were diluted in DMEM with 0.25 mg/mL bovine serum albumin.
Molecules were characterized to determine whether they were full agonists, partial agonists, or antagonists. For studies of ^45Ca^2+ uptake by CHO/VR1 cells (Tet-off cells), the cells were plated in 24-well plates to yield a cell density 20-40% of that required to produce confluence. The next day the medium was changed to remove the tetracycline and induce VR1 expression. Experiments were performed approximately 36-40 hours after induction. For ^45Ca^2+ uptake assay, cells were incubated for 5 min at 37° C. in a total volume of 400 μL of serum free DMEM (containing 1.8 mM CaCl2) in the presence of 0.25 mg/mL BSA (Sigma), 1 μCi/mL ^45Ca^2+ (5-30 Ci/g from ICN, CA), and increasing concentrations of the compound to be tested. Immediately after the incubation, extracellular ^45Ca^2+ was removed by washing the cells three times with cold DPBS (containing 1.8 mM CaCl2). Then 400 μl RIPA buffer (50 mM Tris pH 7.4; 150 mM NaCl; 1% Triton X-100; 0.1% SDS; 1% sodium deoxycholate) was added to each well in order to lyse the cells. Plates were shaken slowly for 20 min; then 306 μL of cell lysate was transferred from each well into a scintillation vial and radioactivity was determined by scintillation counting. For each data point in each experiment, four wells were assayed. Data from these experiments were analyzed by computer fit to the Hill equation. At least 3 separate experiments were carried out for each compound. In order to determine antagonist activity, studies were performed in exactly the same fashion with the exception that 50 nM capsaicin was added to the assay mixture to stimulate ^45Ca^2+ uptake.

[2] = biological target: T1, rat VR1; assay: [3H]resiniferatoxin (RTX) competition binding assay, VR1-transfected CHO cells
Description: The pUHG102 VR1 plasmid was transfected into CHO cells containing the pTet Off regulatory plasmid (Clontech). In these cells, expression of the VR1 is repressed in the presence of tetracycline but is induced upon removal of the antibiotic. Stable clones were isolated in culture medium containing puromycin (10 μg/mL) and maintained in HAM F12 medium supplemented with tetracycline (1 μg/mL), 5 μg/ml geniticin, 25 mM HEPES, 10% FBS. Cells utilized for assays were grown in culture medium without antibiotic for 48 h before use. Cells were seeded in T75 cell culture flasks in media without antibiotics and grown to approximately 90% confluence. The flasks were then washed with PBS and harvested in 0.25% trypsin, 1 mM EDTA. The cells were pelleted by gentle centrifugation and stored at −20° C. until assay.
Competition Binding Assay
Binding studies with [^3H]resiniferatoxin (RTX) were carried out as described previously with minor modifications (Szallasi et al., 1992). Binding assay mixtures were set up on ice and contained 50-100 pM [^3H]RTX, various concentrations of competing ligands, 0.25 mg/mL BSA (Cohn fraction V), and about 5×10^5 VR1-transfected cells. The final volume was adjusted to 350 μL with DPBS with Ca^2+ and Mg^2+ and 0.25 mg/mL bovine serum albumin. Non-specific binding was determined in the presence of 100 nM nonradioactive RTX. The binding reaction was initiated by transferring the assay mixtures to a 37° C. water bath and was terminated after a 60 min incubation period by cooling the tubes on ice. To reduce non-specific binding, 200 μg/ml α-glycoprotein was added. Membrane-bound RTX was then separated from the free by pelleting the membranes in a Beckman 12 benchtop centrifuge (15 min, maximal velocity), the tips of the tubes containing the pellets were cut off, and the radioactivity was determined by scintillation counting. Equilibrium binding parameters (Ki and cooperativity) were determined by fitting the Hill equation to the measured values with the aid of the program MicroCal Origin 6.0.
Initial stocks were dissolved in DMSO. […]

[3] = competition with [3H]RTX, rat VR1 in CHO cells, read-out: Ki (nM) Binding Affinity

CC(C(=O)NCCCc1ccc(Cl)cc1)c1ccc(NS(C)(=O)=O)c(F)c1 (stereo not drawn) [4-19, N-[3-(4-Chlorophenyl)propyl]-2-[3-fluoro-4-(methylsulfonylamino)phenyl]propionamide]
Ki [1]: 135 nM
Ki [2, 3]: 466 nM

CC(C(=O)NCC=Cc1ccc(Cl)cc1)c1ccc(NS(C)(=O)=O)c(F)c1 (stereo not drawn) [4-20, N-[3-(4-Chlorophenyl)-2-propenyl]-2-[3-fluoro-4-(methylsulfonylamino)phenyl]propionamide]
Ki [1]: 384 nM
Ki [2]: 897 nM

CC(C(=O)NCC=C(c1ccccc1)c1ccccc1)c1ccc(NS(C)(=O)=O)c(F)c1 (stereo not drawn) [4-25, N-(3,3-Diphenyl-2-propenyl)-2-[3-fluoro-4-(methylsulfonylamino)phenyl]propionamide]
Ki [1]: 14.2 nM
Ki [2, 3]: 21.5 nM
